{"source": "patent US20130210034A1", "about": "“COMPLEX PHOSPHOPROTEIN ACTIVATION PROFILES” (BECKMAN COULTER, INC., priority 2005, published 2013)", "molecules": {"B1": {"name": "Interleukin- 3 (protein, UniProt P08700 20-152, looked up)", "Interleukin-3": "APMTQTTPLKTSWVNCSNMIDEIITHLKQPPLPLLDFNNLNGEDQDILMENNLRRPNLEAFNRAVKSLQNASAIESILKNLLPCLPLATAAPTRHPIHIKDGDWNEFRRKLTFYLKTLENAQAQQTTLSLAIF", "notes": "colony-stimulating cytokine"}}, "test_in_all_cases": "Phosphoprotein kinetic profiles in CD34+, CD117+ cells of AML bone marrow samples", "format_in_all_cases": "cell-based, human", "conditions_in_all_cases": "AML1 sample (Example 6)", "key": {"pS6": {"tested_on": "pS6", "procedure": "(§1) To assess the signal transduction response after growth factor simulation, 100 to 200 μL of processed samples including about 2×10^6 WBC/100 μL were added to tubes and incubated at 37° C. for 30 minutes. For inhibition experiments, cells were incubated with 100 μM U0126, 1 μg/mL rapamycin, or both for at least 20 minutes prior to cytokine addition and in all cases for 30 min prior to formaldehyde addition. After this pre-incubation period, tubes were incubated at 0, 1, 2, 4, 6, 8, 10, 15, 20, 25, 30, and 60 minutes with one of the following cytokines to stimulate protein phosphorylation: 100 ng/mL SCF, 25 ng/mL FL, 25 ng/mL GM-CSF, or 25 ng/mL IL-3. After stimulation the cells were immediately fixed by the addition of formaldehyde to a final concentration of 4% v/v and incubated for 10 minutes at room temperature. Following fixation, red blood cells were lysed by the addition of TRITON-X/PBS solution (0.1% v/v final concentration Triton X-100) supplemented with a 1 x phosphatase inhibitor cocktail (PIC; final concentrations: 0.2 mM sodium orthovanadate, 2 mM sodium pyrophosphate decahydrate, 2 mM [3-glycerophosphate, and 10 mM sodium fluoride) and incubation at 37° C. for 20 minutes. The incubated solution was chilled by the addition of ice-cold Wash Buffer (final concentration 1×PBS and either 4% bovine serum albumin (BSA) or 4% heat-inactivated fetal bovine serum (FBS), supplemented with 1×PIC), and the samples were centrifuged at 300 g for 6 minutes at 4° C.). If the lysis was incomplete, samples were retreated with 0.1% Triton X-100 at 37° C. for 10 to 20 minutes. After removal of the supernatant, cells were washed twice in ice-cold Wash Buffer supplemented with 1×PIC and permeabilized by the addition of pre-chilled 80% methanol while simultaneously vortexing the tube and incubated on ice for 10 minutes. Methanol was removed by centrifugation, the pellet was washed with ice-cold 1×PBS, and non-specific binding was blocked by the addition of ice-cold Wash Buffer supplemented with 1×PIC and incubation at 4° C. for a minimum of 30 minutes.\n(§2) To stain cells with fluorescent conjugated monoclonal antibodies, the incubated solution was centrifuged to remove the supernatant and the pellet was incubated for 60 minutes at 4° C. with an antibody staining solution including 0.25 μg to 0.50 μg of pS6-Pacific Blue, pERK-ALEXA 488, pSTAT5-ALEXA 647, CD34-PE, CD45-PerCP, and CD117-PC7. Samples were washed three times with ice-cold Wash Buffer supplemented with 1×PIC, resuspended in 0.5 mL ice-cold Wash Buffer supplemented with 1×PIC including 0.5 μg/mL DAPI, and analyzed by flow cytometryusing a BD LSR II Flow Cytometer, equipped with a High Throughput Sampler (HTS).\n(§3) First, doublets, aggregates, and debris were excluded by gating on single cell events in the SSC-Area versus SSC-Height histogram. Then, in events passing through this gate, debris near the origin of the FSC-Area versus SSC-Area plot (gray in FIG. 4A) was excluded by drawing a gate around an area encompassing, primarily, lymphocytes, monocytes, and granulocytes (LMG, black in FIG. 4A). Next, in cells passing through the LMG gate, the blast region (circle in FIG. 4B) was identified in the CD45 versus SSC-Area histogram (FIG. 4B). From this blast population, CD34+, CD117+ cells were identified in the CD34 versus CD117 plot (boxed area in FIG. 4C). Finally, these cells were further analyzed for cytokine-mediated increases in phosphorylation by constructing gates in the single parameter histograms (for positively and negatively stained events, i.e., for the phosphorylated and non-phosphorylated forms, respectively, of each protein) for pS6 (FIGS. 4D and 4G), pERK (FIGS. 4E and 4H), and pSTAT5 (FIGS. 4F and 4I). The single parameter histograms show the responses typically obtained for SCF-stimulated pS6 (4 min; FIG. 4D), pERK (2 min; FIG. 4E), and pSTAT5 (2 min; FIG. 4F) as well as for IL-3 stimulated pS6 (FIG. 4G), pERK (FIG. 4H), and pSTAT5 (FIG. 41) at 8 min. […]"}, "pSTAT5": {"tested_on": "pSTAT5", "procedure": "as §1, §2, §3"}, "pERK": {"tested_on": "pERK", "procedure": "as §1, §2, §3"}}}
{"molecule": "B1", "values": [{"measurement": "pS6 Amp (peak amplitude of fold stimulation)", "setting": "pS6", "value": 1}, {"measurement": "pS6 RI (response interval)", "setting": "pS6", "value": 20, "unit": "min"}, {"measurement": "pSTAT5 Amp (peak amplitude of fold stimulation)", "setting": "pSTAT5", "value": 150}, {"measurement": "pSTAT5 RI (response interval)", "setting": "pSTAT5", "value": ">60", "unit": "min"}, {"measurement": "pERK Amp (peak amplitude of fold stimulation)", "setting": "pERK", "value": 5}, {"measurement": "pERK RI (response interval)", "setting": "pERK", "value": 10, "unit": "min"}]}
